Laboratory results: ChEMBL document CHEMBL1143444, “Dual EGFR/ErbB-2 inhibitors from novel pyrrolidinyl-acetylenic thieno[3,2-d]pyrimidines” (Bioorg Med Chem Lett, 2008)

By UniProt entry, the sequences of proteins in these tests, tags left out.
UniProt P04626, whole entry: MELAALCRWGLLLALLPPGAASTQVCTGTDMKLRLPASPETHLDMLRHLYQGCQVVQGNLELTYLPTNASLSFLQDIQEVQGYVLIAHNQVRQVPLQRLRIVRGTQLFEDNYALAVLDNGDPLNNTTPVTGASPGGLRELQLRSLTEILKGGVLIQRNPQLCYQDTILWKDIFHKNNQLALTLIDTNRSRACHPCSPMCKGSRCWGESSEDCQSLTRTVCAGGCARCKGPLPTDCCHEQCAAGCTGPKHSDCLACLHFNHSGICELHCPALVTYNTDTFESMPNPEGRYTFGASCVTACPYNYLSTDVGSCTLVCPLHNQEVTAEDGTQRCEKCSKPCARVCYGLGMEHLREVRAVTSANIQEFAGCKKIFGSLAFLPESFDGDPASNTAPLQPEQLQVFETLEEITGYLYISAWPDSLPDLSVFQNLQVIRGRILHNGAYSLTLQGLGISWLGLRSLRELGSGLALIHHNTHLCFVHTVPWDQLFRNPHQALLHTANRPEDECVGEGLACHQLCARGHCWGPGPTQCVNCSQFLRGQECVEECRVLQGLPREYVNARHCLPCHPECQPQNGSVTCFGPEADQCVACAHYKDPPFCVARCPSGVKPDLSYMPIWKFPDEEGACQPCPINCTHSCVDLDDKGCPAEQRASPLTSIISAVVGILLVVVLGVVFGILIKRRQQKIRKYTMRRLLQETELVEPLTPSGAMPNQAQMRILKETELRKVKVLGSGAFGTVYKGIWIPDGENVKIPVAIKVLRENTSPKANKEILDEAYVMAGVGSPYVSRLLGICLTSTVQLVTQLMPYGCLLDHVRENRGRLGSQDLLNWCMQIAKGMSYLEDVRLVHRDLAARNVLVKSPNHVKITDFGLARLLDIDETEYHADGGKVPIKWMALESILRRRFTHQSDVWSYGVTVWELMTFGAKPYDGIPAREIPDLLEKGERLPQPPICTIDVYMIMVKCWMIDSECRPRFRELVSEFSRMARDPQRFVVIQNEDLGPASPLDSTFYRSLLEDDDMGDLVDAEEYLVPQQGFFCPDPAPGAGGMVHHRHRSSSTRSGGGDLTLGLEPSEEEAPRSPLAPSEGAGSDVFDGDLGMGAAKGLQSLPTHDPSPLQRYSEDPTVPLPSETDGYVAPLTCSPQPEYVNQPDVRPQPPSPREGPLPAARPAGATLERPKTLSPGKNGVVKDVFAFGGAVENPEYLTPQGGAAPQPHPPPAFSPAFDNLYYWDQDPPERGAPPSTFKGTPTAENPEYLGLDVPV
UniProt P00533, whole entry: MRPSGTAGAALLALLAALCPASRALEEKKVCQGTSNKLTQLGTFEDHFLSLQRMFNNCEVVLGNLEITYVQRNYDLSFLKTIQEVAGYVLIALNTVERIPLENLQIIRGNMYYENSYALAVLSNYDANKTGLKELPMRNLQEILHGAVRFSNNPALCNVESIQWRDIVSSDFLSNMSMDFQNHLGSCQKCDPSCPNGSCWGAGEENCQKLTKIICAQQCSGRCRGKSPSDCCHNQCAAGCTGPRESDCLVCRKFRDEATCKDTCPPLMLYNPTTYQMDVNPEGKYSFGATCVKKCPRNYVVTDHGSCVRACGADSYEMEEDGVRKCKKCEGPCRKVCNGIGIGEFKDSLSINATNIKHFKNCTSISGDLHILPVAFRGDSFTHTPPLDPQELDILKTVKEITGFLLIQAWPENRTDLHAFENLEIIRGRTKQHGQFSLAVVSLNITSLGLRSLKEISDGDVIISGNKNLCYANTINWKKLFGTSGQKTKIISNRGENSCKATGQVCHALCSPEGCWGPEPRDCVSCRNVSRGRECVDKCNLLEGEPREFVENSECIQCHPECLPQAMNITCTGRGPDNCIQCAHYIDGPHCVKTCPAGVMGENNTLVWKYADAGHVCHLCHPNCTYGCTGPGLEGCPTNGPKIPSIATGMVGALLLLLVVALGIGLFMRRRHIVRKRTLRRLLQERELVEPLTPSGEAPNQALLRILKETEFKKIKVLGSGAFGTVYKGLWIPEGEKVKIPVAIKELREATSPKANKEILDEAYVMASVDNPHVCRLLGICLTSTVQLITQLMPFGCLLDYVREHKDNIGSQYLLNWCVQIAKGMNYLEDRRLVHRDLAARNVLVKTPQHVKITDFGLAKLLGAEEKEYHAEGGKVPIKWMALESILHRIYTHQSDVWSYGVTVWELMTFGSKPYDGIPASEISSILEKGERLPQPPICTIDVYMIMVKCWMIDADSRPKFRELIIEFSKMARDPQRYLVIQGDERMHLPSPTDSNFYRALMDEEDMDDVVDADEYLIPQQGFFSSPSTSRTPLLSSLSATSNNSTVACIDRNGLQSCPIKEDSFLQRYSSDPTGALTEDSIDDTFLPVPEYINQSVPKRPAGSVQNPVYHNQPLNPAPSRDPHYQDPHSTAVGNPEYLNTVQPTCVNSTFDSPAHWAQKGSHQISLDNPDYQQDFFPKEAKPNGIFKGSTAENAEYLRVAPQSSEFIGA

How the values were obtained:
BT-474 = experiment: Antiproliferative activity against human BT474 cells overexpressing ErbB2 after 3 days by methylene blue staining; conditions: BT-474, 72 h
[1] = target: Receptor tyrosine-protein kinase erbB-2 (Homo sapiens, UniProt P04626)
HN5 = experiment: Antiproliferative activity against human HN5 cells overexpressing EGFR after 3 days by methylene blue staining; conditions: HN5, 72 h
[2] = target: Epidermal growth factor receptor (Homo sapiens, UniProt P00533); experiment: Inhibition of EGFR kinase

IC50 (BT-474) [nM] | IC50 [1] [nM] | IC50 [2] [nM] | SMILES | IC50 (HN5) [nM]
110 | 110 |  | COCCN1CCC[C@@H]1C#Cc1cc2ncnc(Nc3ccc(OCc4cccc(F)c4)c(Cl)c3)c2s1 | 
 | 43 |  | CCNC(=O)O[C@H]1CN[C@H](C#Cc2cc3ncnc(Nc4ccc(OCc5cccc(F)c5)c(Cl)c4)c3s2)C1 [GSK-192082A] | 
 |  | 65 | O=C(O[C@H]1CN[C@H](C#Cc2cc3ncnc(Nc4ccc(OCc5cccc(F)c5)c(Cl)c4)c3s2)C1)N1CCOCC1 [GW869810X] | 160
